Test [1] addresses T1, NAD-dependent protein deacetylase sirtuin-3, mitochondrial (Homo sapiens) (UniProt Q9NTG7).
T1 sequence (whole entry): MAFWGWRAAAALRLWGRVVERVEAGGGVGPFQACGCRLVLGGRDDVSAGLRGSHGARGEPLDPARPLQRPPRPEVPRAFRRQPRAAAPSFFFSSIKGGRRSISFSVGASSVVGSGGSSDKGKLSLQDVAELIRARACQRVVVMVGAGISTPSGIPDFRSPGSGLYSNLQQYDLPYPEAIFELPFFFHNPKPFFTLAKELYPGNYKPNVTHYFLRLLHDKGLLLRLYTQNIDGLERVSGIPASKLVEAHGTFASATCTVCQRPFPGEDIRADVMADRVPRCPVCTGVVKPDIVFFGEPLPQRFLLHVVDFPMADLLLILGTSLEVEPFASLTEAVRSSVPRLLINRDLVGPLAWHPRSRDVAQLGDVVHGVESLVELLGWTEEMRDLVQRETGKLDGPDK
In words: Modulation of human Sirt3 (118 to 399 residues) deacetylation activity under non-steady state assessed as substrate deacetylation at low enzyme concentration with [E]0/[NAD+]0 ratio of 0.3 at 10 uM incubated for 2 mins using MnSOD peptide as substrate in presence of NAD+ by HPLC-assay relative to control. The conditions noted are these: filed as modulator.

Test [2] concerns the target T1, NAD-dependent protein deacetylase sirtuin-3, mitochondrial (Homo sapiens). Nature of the test: Modulation of human Sirt3 (118 to 399 residues) deacetylation activity under non-steady state assessed as substrate deacetylation at high enzyme concentration with [E]0/[NAD+]0 ratio of 0.6 at 10 uM incubated for 2 mins using MnSOD peptide as substrate in presence of NAD+ by HPLC-assay relative to control. The conditions noted are these: filed as modulator.

Our source for the Activity values is ChEMBL document CHEMBL5214958, “Discovery of novel compounds as potent activators of Sirt3” (Bioorg Med Chem, 2022).

Structures are written as SMILES.

On to `CCCCNC(=O)COc1ccc2c(c1)CCc1ccccc1C2NC(=O)CCCOc1cc([N+](=O)[O-])c(C(C)O)cc1OC` (configuration not stated), for which the Activity in test [1] is 107%; in test [2], 122%.
